Test results taken from PubChem BioAssay AID1446 (The Scripps Research Institute Molecular Screening Center, 2008).
Only a part is listed here, and it is no random draw. Some of these compounds have results that are not shown, active ones among them. Calls of active or inactive are those of the source.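 Rule for the calls: active = inhibition above the campaign mean plus 3 SD over all tested compounds (cut at about 24% in these data); inactive = the rest.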

assay: reduced viability of JAK2V617F-dependent Ba/F3 cells, primary screen, JAK2V617F inhibitor project, cell-based, Ba/F3 EpoR-JAK2V617F, luminescence (AID 1446); conditions: ATP luminescence, at 5.6 µM, hits give high values;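 note: cytokine-independent growth of Ba/F3 cells driven by EpoR plus mutant JAK2; 0% = DMSO-treated cells and 100% = JAK inhibitor I control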

Compound	inhibition
O=C(OC1CN2CCC1CC2)C(CO)(c1ccccc1)c1ccccc1 (stereo unspecified)	inactive: 2.36%
COc1ccc(Br)c(C(=O)NCC2(N3CCCCC3)CCCCC2)c1	inactive: -3.2%
CN(C)c1cccc(C(=O)NCC2(N(C)C)CCCCC2)c1	inactive: -1.52%
COc1cccc(C(=O)NCC2(N3CCCCC3)CCCCC2)c1	inactive: -0.65%
Cc1ccccc1C(=O)NCC1(N2CCCCC2)CCCCC1	inactive: 4.64%
CN(C)C1CCCC1OC(=O)C(O)(c1ccccc1)c1ccccc1 (stereo unspecified)	inactive: -3.18%
C=CCN1CCN(CCOC(=O)C(O)(c2ccccc2)c2ccccc2)CC1	inactive: -2.28%
CCN1CCCC(OC(=O)C2(O)c3ccccc3C=Cc3ccccc32)C1 (stereo unspecified)	inactive: -2.05%
O=C(NCC1(N2CCCCC2)CCCCC1)c1cc([N+](=O)[O-])ccc1Cl	inactive: 1.1%
CCN(CC)CC(C)C(C)OC(=O)C(O)(c1ccccc1)c1ccccc1 (stereo unspecified)	inactive: -4.93%
CC(C)N1C(=O)CC2(CCN(CCOC(=O)C(O)(c3ccccc3)c3ccccc3)CC2)C1=O	inactive: -2.46%
